Sequences of proteins named here, by UniProt entry; tags and fusion partners are left off.
UniProt P14902, whole entry: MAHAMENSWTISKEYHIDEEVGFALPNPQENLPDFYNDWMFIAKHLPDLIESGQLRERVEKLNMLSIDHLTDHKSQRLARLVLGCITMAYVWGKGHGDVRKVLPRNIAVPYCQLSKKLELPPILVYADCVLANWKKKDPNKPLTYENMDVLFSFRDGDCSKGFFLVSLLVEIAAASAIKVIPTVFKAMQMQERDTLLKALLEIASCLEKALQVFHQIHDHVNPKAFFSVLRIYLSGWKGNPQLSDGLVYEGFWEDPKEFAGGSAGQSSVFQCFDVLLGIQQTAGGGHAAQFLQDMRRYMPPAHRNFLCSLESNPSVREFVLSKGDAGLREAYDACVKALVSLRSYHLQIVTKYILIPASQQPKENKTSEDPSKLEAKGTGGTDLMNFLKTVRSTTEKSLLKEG

pIC50: −log10 of the molar value.
What follows are compounds tested against Recombinant human IDO (Homo sapiens, UniProt P14902) (assay: Bridge-IT tryptophan fluorescence assay of human IDO-1 inhibition). Settings: read-out: Bridge-it, recombinant human IDO 7.5 nM, L-tryptophan.
Work on `OC1CCC(C(O)CC2c3cc(F)ncc3-c3cncn32)CC1` (single isomer, unassigned) yielded a pIC50 of under 6.00.
In the case of `Fc1cc2c(cn1)-c1cncn1C2CCC1(F)CCCCC1` (single isomer, unassigned) [27a], the pIC50 was under 6.00.
`Fc1cc2c(cn1)-c1cncn1C2CCC1(F)CCCCC1` (single isomer, unassigned) [27b] was tested, and the pIC50 was 6.00 to 7.00.

Reference: patent publication US9771370B2, “Compounds for the inhibition of indoleamine-2,3-dioxygenase” (Merck Patent GmbH, priority 2014, dated 2017)
